The source of these data is patent publication US11091496B2, “Opioid ketal compounds and uses thereof” (priority 2013, dated 2021).

Read-outs that look alike come from different tables or passages of the source.

The format of the data set is physicochemical. Particulars: 0.1 N HCl 37° C.; for % Hydromorphone, % Ketal A-D in hydrolysis mixture: hydromorphone 2,4-pentanediol ketal isomers + unreacted hydromorphone, 1 mg/ml; for % increase in hydromorphone: hydromorphone released from hydrolysis of hydromorphone 2,4-pentanediol ketals.

Regarding `CN1CC[C@]23c4c5ccc(O)c4O[C@H]2C(=O)CC[C@H]3[C@H]1C5` [Hydromorphone, hydromorphone, reference compound], the “% Hydromorphone, % Ketal A-D in hydrolysis mixture” value is reported as 63.3% (0 h); 72.5% (0.58 h); 75.4% (1.25 h); 78.8% (2 h); 83% (3.15 h); 85% (4 h). The “% increase in hydromorphone” value (0 h) is 0%; the “% increase in hydromorphone” value (0.58 h) is on record as 9.2%; the “% increase in hydromorphone” value (1.25 h) is given as 12.1%; the “% increase in hydromorphone” value (2 h) is recorded as 15.5%; the “% increase in hydromorphone” value (3.15 h) is on record as 19.7%; the “% increase in hydromorphone” value (4 h) was 21.7%.
